Literature values in patent US20070179113A1, “GM-CSF gene therapy for Crohn's disease using an improved regulated expression system” (Schering Aktiengesellachaft, priority 2005, published 2007).

System: relapses in MS patients
Conditions: cited from earlier work

B1: Recombinant interferon beta: recombinant interferon beta introduced in 1993 for treatment of MS (protein, UniProt P01574 22-187, looked up)
Interferon beta: MSYNLLGFLQRSSNFQCQKLLWQLNGRLEYCLKDRMNFDIPEEIKQLQQFQKEDAALTIYEMLQNIFAIFRQDSSSTGWNETIVENLLANVYHQINHLKTVLEEKLEKEDFTRGKLMSSLHLKRYYGRILHYLKAKEYSHCAWTIVRVEILRNFYFINRLTGYLRN
- decrease in the number of relapses in MS patients, annually: 30-37%
